ChEMBL document CHEMBL1138972, “Discovery of potent CRTh2 (DP2) receptor antagonists” (Bioorg Med Chem Lett, 2006)

Organism: Homo sapiens
Assay: Protein binding in human plasma
Details: read-out: PPB

## COc1ccc2c(c1)c(CC(=O)O)c(C)n2-c1ccnc2cc(Cl)ccc12
  fraction unbound: 0.01
